Columns and labels:
[1] = Far-UV CD spectroscopy of peptides; format: physicochemical; conditions: aqueous solution / buffer (Figure S2D)
[2] = ref PDB; cited from earlier work

For obestatin [Pep6], the “Secondary structure by far-UV CD” value [1] is given as “unfolded in our buffer system” and the “Structure according to PDB NMR structures” value [2] is given as “α helical when present in micelles yet adopts random-coil structure in water”.

— publication PMC3376891 (Cell, 2012)
